Experimental data reported in article PMC8044178, “Structural basis of norepinephrine recognition and transport inhibition in neurotransmitter transporters” (Nature Communications, 2021).

The chains behind the UniProt entries cited, without tags or fusion partners. A line that says so, or that is headed by a name, gives the form on record, which may keep a tag or linker.
UniProt Q7K4Y6, other isoform, or with tags, fused parts or gaps V74A/A117S/DEL164-191/L415A/A428S/F471L: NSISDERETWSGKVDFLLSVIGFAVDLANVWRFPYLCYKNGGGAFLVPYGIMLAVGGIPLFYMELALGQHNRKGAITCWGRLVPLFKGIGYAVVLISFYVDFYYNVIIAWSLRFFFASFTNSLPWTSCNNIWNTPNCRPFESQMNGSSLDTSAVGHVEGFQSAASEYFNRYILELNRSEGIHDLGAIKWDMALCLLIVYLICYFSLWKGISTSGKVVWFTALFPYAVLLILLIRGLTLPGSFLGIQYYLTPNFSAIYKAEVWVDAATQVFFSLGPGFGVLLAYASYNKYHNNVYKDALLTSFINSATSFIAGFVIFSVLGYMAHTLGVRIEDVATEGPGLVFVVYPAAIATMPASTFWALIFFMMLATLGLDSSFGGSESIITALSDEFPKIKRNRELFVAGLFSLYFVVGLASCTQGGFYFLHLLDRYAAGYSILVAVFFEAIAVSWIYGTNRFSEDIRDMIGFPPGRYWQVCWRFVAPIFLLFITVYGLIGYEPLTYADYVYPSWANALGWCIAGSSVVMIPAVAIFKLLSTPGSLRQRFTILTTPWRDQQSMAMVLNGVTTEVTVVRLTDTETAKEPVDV

Molecular target: T1, dDATfc A117S/A428S (Drosophila melanogaster, UniProt Q7K4Y6, A117S/A428S/DEL164-191/F471L/L415A/V74A)
T1 construct: expressed in transfected cells; host or cells: HEK293S GnTI- cells, transient transfection with pEG-BacMam plasmid
Assay type: cell-based
Settings: double mutant vs dDATfc

COc1cccc(C2(O)CCCCC2CN(C)C)c1 (stereo not shown) [Tramadol, tramadol]
increase in IC50 values, combination of A428S and A117S: ~ 5 fold
